Experimental data published in patent US20220144817A1 (Karuna Therapeutics, Inc., priority 2019, published 2022).

The chains behind the UniProt entries cited, without tags or fusion partners. Where a name states a change or a piece, a line headed by the entry shows the natural chain unless it says otherwise.
UniProt P08172, whole entry: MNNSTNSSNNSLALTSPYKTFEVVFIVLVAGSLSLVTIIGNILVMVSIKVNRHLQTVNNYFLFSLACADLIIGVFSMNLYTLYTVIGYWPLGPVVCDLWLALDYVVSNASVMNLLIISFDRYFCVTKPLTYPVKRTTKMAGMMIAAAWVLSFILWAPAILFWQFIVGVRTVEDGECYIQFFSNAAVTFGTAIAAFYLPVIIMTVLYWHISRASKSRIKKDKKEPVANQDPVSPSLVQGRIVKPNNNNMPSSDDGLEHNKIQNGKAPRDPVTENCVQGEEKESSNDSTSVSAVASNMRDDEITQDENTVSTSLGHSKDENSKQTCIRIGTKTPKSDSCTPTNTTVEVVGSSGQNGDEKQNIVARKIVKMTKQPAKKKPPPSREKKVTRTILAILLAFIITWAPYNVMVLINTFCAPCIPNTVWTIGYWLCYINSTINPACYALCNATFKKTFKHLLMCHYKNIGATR
UniProt P11229: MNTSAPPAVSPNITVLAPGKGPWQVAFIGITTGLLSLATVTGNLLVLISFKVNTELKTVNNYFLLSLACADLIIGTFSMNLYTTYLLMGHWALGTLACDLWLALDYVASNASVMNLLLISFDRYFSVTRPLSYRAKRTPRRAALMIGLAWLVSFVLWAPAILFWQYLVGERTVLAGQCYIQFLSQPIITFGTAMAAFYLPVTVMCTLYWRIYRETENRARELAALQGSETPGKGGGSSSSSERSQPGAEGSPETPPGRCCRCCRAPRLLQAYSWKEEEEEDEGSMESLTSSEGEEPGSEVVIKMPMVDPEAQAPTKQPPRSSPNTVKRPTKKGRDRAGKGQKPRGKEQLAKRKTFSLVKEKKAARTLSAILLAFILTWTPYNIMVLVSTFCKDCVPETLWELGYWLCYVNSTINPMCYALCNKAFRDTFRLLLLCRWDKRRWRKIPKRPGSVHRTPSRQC

Tests used:
[1] = target: T1, muscarinic acetylcholine receptor human M2 (hM2) (Homo sapiens, UniProt P08172); experiment: pERK dose response in CHO cells stably expressing hM2; format: cell-based; details: CHO cells expressing hM2, 5-minute incubation, normalized to maximum FBS response, n=3; read-out: pEC50 (pERK), M2 (converted)
T1 construct: expressed in transfected cells

[2] = target: muscarinic acetylcholine receptor human M1 (hM1) (Homo sapiens, UniProt P11229); details: pERK; rank hM4>hM1
Source text: The Flp-In™ cell lines are designed for rapid generation of stable cell lines that express a protein of interest from a Flp-In™ expression vector.
Extracellular signal-related kinase (ERK1/2 or p42/44) is a kinase in the mitogen-activated protein kinase (MAPK) family. Phosphorylation of ERK (pERK) can be used as a common end point measurement for the activation of many classes of G protein coupled receptors (GPCR) and beta-arrestin linked signaling.
For the pERK assay, cells were serum starved for 5 to 6 hours. Curves were normalized to the maximum response from the fetal bovine serum (FBS) medium corresponding to a 5-minute stimulation. A 5-minute incubation with the agonists was selected for the dose response pERK assays (n=2).
Nonlinear regression curves were calculated per the three parameters method with no constraints.

| EC50 [1] [µM] | agonist capacity at hM1 [2] | SMILES |
| --- | --- | --- |
| 0.665 | efficacious partial agonist | [2H]C([2H])([2H])C([2H])([2H])C([2H])([2H])C([2H])([2H])C([2H])([2H])C([2H])([2H])Oc1nsnc1C1=CCCN(C)C1 [Xanomeline-d13, 3-((hexyl-1,1,2,2,3,3,4,4,5,5,6,6,6-d13)oxy)-4-(1-methyl-1,2,5,6-tetrahydropyridin-3-yl)-1,2,5-thiadiazole] |
| 0.735 | efficacious partial agonist | [2H]C([2H])([2H])N1CCC=C(c2nsnc2OC([2H])([2H])C([2H])([2H])C([2H])([2H])C([2H])([2H])C([2H])([2H])C([2H])([2H])[2H])C1 [Xanomeline-d16, 3-((hexyl-1,1,2,2,3,3,4,4,5,5,6,6,6-d13)oxy)-4-(1-(methyl-d3)-1,2,5,6-tetrahydropyridin-3-yl)-1,2,5-thiadiazole] |
